# Test results taken from PubChem BioAssay AID250 (DTP/NCI, 2004).
# Inconclusive results and toxic doses are left out.
# Tested on: BDF1 mice, L1210 leukemia sc, survival T/C
# Assay: NCI In Vivo Anticancer Drug Screen. Data for tumor model L1210 Leukemia (subcutaneous) in B6D2F1 (BDF1) mice
# Conditions: higher = longer survival
# Procedure: The antitumor activity of compounds was measured in mice bearing transplantable tumors. Survival or tumor size were measured and the results are expressed as the measurement made in the treated group (T) divided by the measurement made in the vehicle treated control group (C). The tumor model used in this assay is L1210 Leukemia (subcutaneous) in B6D2F1 (BDF1) mice
structure (smiles),measurement,setting,value
CN(Cc1cnc2nc(N)nc(N)c2n1)c1ccc(C(=O)N[C@@H](CCC(=O)O)C(=O)O)cc1,T/C,"endpoint: mean survival time, dose: 40.0 mg/kg/injection, schedule: Q04DX003 (ip), vehicle: sodium bicarbonate",151 % of control
same,T/C,"endpoint: mean survival time, dose: 45.0 mg/kg/injection, schedule: Q04DX004 (ip), vehicle: other",121 % of control
same,T/C,"endpoint: median survival time, dose: 0.3 mg/kg/injection, schedule: Q01DX Z (sc), vehicle: other",121 % of control
same,T/C,"endpoint: median survival time, dose: 1.08 mg/kg/injection, schedule: Q01DX010 (sc), vehicle: other",172 % of control
same,T/C,"endpoint: median survival time, dose: 1.5 mg/kg/injection, schedule: Q01DX012 (ip), vehicle: sodium bicarbonate",172 % of control
same,T/C,"endpoint: median survival time, dose: 1.8 mg/kg/injection, schedule: Q01DX009 (ip), vehicle: sodium bicarbonate",162 % of control
same,T/C,"endpoint: median survival time, dose: 1.8 mg/kg/injection, schedule: Q01DX015 (sc), vehicle: other",172 % of control
same,T/C,"endpoint: median survival time, dose: 3.02 mg/kg/injection, schedule: Q01DX Z (sc), vehicle: other",172 % of control
same,T/C,"endpoint: median survival time, dose: 3.75 mg/kg/injection, schedule: Q01DX Z (sc), vehicle: other",172 % of control
same,T/C,"endpoint: median survival time, dose: 5.0 mg/kg/injection, schedule: Q01DX025 (sc), vehicle: other",172 % of control
same,T/C,"endpoint: median survival time, dose: 8.4 mg/kg/injection, schedule: Q02DX Z (sc), vehicle: other",172 % of control
